From ChEMBL document CHEMBL6153068, “Novel N-(3-(1-(4-sulfamoylphenyl)triazol-4-yl)phenyl)benzamide Derivatives as Potent Carbonic Anhydrase Inhibitors with Broad-Spectrum Anticancer Activity: Leveraging Tail and Dual-Tail Approaches” (J Med Chem, 2025) come the findings set out here.

The chains behind the UniProt entries cited, without tags or fusion partners. Where a name states a change or a piece, a line headed by the entry shows the natural chain unless it says otherwise.
UniProt P36888, whole entry: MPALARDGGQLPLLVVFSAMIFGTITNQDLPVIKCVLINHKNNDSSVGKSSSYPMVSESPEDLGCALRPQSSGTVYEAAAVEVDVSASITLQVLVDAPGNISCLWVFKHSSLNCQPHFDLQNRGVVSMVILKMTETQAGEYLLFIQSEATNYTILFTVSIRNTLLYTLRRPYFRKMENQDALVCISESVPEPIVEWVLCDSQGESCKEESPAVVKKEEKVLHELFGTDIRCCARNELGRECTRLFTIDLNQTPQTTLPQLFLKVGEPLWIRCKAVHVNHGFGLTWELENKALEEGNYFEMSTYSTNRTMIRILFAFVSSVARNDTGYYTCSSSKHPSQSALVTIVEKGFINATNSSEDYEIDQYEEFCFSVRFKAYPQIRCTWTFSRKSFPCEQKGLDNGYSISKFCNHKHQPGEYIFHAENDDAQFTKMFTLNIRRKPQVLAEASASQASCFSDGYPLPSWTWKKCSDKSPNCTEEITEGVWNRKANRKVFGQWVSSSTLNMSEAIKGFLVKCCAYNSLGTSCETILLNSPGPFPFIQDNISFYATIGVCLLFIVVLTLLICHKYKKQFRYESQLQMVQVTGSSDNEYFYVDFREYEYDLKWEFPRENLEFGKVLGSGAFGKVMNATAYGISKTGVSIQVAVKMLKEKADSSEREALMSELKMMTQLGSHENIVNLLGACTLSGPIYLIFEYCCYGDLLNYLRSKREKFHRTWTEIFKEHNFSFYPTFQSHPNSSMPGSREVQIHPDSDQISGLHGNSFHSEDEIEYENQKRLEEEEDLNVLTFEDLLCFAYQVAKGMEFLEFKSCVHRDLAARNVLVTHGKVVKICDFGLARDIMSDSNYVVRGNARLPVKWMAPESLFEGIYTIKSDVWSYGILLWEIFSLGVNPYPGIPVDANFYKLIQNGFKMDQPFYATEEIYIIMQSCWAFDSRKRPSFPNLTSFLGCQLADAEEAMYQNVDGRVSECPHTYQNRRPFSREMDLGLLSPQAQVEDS
UniProt P15056, whole entry: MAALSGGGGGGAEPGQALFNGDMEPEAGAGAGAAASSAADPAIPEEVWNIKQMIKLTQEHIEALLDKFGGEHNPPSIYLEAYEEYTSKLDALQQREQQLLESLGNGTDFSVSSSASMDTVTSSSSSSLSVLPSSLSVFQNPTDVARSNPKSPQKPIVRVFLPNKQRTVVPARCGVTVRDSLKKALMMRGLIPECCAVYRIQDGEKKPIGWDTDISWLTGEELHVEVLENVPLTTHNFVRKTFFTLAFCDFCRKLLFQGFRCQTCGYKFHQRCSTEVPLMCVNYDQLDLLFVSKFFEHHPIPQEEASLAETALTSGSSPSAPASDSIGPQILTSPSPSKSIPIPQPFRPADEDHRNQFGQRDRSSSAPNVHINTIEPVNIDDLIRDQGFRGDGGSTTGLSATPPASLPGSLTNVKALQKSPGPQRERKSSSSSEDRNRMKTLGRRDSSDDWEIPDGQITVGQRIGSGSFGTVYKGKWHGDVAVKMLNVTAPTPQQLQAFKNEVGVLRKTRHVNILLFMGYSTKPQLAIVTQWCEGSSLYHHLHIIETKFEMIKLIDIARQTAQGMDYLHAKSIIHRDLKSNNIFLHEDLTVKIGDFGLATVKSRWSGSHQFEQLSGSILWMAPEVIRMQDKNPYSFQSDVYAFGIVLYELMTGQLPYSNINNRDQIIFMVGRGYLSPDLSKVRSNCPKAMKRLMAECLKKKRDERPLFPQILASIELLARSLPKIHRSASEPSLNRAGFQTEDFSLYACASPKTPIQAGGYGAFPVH
UniProt P35968, whole entry: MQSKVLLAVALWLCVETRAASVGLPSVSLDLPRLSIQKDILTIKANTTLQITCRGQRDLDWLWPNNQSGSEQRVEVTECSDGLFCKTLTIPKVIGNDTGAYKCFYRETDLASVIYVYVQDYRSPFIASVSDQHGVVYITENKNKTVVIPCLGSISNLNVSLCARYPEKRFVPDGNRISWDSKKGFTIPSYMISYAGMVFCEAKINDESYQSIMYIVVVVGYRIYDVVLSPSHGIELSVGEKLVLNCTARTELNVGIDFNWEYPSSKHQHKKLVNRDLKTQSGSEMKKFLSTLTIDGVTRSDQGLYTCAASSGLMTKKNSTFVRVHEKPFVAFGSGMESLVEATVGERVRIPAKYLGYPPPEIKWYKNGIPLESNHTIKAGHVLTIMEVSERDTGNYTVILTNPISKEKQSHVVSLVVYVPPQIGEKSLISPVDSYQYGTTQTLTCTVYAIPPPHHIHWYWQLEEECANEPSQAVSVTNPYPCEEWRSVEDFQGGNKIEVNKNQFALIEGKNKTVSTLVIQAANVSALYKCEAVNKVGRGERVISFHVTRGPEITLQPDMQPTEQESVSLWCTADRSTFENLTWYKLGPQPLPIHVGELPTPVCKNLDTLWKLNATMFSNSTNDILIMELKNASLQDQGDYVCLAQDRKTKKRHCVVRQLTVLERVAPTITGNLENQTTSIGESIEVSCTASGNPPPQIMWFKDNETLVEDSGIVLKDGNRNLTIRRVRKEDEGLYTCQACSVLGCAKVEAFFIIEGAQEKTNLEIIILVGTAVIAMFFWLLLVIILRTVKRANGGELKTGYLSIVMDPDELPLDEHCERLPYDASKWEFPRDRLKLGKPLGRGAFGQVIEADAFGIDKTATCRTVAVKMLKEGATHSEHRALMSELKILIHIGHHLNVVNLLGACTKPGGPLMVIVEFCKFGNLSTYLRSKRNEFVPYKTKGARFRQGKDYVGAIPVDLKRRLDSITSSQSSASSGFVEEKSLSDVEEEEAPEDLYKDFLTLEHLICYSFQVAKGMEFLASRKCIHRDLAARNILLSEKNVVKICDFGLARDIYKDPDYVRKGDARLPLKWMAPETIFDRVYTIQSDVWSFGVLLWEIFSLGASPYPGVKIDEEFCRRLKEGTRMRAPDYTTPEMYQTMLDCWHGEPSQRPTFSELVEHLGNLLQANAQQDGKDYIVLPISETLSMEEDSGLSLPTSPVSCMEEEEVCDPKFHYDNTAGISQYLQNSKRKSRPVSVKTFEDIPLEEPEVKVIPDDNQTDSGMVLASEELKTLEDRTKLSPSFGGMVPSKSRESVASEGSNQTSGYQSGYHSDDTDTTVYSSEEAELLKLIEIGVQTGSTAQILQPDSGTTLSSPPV
UniProt P27986: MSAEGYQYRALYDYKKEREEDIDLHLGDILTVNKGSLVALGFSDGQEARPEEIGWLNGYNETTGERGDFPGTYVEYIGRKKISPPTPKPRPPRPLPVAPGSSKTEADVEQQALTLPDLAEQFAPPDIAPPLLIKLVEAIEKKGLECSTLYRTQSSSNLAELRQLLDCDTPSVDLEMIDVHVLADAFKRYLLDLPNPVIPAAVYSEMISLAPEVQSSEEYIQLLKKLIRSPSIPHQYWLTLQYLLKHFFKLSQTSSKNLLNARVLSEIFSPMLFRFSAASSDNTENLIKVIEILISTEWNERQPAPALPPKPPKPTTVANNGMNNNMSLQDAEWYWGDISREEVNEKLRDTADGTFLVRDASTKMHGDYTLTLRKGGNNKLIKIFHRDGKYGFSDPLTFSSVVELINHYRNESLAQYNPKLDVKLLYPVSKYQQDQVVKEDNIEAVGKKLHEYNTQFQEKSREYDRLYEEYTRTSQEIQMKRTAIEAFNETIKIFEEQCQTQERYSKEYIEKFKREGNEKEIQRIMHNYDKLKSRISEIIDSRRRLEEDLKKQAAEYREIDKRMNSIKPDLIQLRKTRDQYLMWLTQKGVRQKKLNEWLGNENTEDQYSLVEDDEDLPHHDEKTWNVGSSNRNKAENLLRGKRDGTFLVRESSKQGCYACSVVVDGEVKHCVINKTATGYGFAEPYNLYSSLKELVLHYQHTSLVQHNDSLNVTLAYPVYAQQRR
UniProt Q08345: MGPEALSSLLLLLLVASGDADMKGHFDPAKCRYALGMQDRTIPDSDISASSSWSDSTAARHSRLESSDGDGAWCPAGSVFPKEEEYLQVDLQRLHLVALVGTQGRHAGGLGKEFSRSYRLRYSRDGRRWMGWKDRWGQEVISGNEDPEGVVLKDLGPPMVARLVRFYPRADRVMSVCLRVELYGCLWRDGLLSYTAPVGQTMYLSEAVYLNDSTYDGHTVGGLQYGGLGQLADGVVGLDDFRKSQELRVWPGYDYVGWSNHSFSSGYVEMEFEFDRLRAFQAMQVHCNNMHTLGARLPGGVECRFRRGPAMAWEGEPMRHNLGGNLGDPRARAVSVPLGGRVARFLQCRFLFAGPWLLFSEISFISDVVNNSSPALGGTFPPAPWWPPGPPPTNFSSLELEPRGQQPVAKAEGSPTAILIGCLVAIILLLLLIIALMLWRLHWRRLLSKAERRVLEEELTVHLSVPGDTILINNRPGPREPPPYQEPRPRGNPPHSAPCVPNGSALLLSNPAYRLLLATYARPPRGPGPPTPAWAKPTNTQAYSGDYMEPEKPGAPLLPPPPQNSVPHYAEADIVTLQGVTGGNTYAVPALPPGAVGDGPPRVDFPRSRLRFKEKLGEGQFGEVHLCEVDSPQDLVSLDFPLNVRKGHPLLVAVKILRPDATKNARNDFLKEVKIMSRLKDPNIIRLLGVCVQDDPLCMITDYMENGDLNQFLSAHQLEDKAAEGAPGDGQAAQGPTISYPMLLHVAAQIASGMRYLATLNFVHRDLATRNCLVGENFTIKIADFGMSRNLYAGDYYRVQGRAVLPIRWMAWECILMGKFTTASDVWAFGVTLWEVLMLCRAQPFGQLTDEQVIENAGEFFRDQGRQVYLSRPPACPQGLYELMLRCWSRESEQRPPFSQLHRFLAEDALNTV
UniProt Q96GD4, whole entry: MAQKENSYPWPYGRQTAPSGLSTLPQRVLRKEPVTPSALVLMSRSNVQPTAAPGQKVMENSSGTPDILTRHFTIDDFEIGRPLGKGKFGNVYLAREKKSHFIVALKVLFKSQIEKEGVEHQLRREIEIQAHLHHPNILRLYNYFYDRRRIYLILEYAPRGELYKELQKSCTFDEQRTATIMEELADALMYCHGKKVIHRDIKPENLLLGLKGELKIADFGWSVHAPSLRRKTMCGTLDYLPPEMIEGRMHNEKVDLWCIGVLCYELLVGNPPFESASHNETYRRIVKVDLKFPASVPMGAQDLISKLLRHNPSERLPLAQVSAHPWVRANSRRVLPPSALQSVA
UniProt P07333, whole entry: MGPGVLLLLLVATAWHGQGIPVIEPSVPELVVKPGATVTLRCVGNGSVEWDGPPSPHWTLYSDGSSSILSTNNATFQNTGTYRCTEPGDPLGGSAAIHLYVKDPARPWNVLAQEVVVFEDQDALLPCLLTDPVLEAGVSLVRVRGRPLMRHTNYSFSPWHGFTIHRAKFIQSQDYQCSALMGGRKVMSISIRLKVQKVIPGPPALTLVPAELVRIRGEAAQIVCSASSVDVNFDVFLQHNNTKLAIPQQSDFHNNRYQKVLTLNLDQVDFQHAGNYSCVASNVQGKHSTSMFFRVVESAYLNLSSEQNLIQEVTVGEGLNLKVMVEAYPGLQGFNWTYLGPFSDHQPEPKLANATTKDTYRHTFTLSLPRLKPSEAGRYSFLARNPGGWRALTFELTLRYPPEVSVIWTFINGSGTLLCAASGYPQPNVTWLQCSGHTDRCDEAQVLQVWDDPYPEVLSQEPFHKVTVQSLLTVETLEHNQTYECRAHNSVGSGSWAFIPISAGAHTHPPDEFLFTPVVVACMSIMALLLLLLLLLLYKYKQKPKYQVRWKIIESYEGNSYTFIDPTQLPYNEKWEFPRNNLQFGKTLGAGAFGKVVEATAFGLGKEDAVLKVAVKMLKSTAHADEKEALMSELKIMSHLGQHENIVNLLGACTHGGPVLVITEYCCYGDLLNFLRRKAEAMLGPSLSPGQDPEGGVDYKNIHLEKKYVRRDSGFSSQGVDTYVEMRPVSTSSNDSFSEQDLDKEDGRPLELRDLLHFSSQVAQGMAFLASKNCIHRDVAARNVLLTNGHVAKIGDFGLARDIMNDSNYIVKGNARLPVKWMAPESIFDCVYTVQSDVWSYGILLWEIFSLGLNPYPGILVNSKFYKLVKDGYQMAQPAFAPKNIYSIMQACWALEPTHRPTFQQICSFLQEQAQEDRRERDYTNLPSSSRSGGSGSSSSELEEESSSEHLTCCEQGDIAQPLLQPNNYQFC

Test [1] has as its target Receptor-type tyrosine-protein kinase FLT3 (Homo sapiens) (UniProt P36888). Nature of the test: Inhibition of human FLT3 using [EAIYAAPFAKKK] as substrate at 10 uM incubated for 40 min by Kinase HotSpotSM based scintillation counting assay.
Test [2] has as its target T1, Aurora kinase A (Homo sapiens) (UniProt O14965).
T1 sequence (whole entry): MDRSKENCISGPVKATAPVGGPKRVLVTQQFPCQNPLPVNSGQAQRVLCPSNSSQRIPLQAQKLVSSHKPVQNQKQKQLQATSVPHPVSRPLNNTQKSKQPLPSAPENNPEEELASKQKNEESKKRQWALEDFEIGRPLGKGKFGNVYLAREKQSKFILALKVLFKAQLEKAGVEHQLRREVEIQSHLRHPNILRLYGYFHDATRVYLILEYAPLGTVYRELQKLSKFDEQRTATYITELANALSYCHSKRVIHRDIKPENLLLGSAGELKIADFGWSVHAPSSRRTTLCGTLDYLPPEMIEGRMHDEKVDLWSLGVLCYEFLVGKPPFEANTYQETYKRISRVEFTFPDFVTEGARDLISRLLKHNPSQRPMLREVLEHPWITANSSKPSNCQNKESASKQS
Nature of the test: Inhibition of human Aurora A using [H-LRRASLG] as substrate at 10 uM incubated for 40 min by Kinase HotSpotSM based scintillation counting assay.

Test [3] addresses RAF proto-oncogene serine/threonine-protein kinase (Homo sapiens) (UniProt P04049). Nature of the test: Inhibition of human RAF1 using MEK1 (K97R) as substrate at 10 uM incubated for 40 min by Kinase HotSpotSM based scintillation counting assay.
Test [4] concerns the target Serine/threonine-protein kinase B-raf (Homo sapiens) (UniProt P15056). Description: Inhibition of human BRAF using MEK1-K97M as substrate at 10 uM incubated for 40 min by Kinase HotSpotSM based scintillation counting assay.
Test [5] deals with Vascular endothelial growth factor receptor 2 (Homo sapiens) (UniProt P35968). Description: Inhibition of human KDR/VEGFR2 using poly[Glu:Tyr] as substrate at 10 uM incubated for 40 min by Kinase HotSpotSM based scintillation counting assay.
For test [6], the target named is PI3-kinase p110-alpha/p85-alpha (Homo sapiens) (UniProt P27986+P42336). Nature of the test: Inhibition of human PI3Kb (p110a/p85a) using PI(4,5)P2:PS as substrate at 10 uM incubated for 40 min by Kinase HotSpotSM based scintillation counting assay. The test is classed as protein-complex assay.
The target of test [7] is Epithelial discoidin domain-containing receptor 1 (Homo sapiens) (UniProt Q08345). Nature of the test: Inhibition of human DDR1 using [KKSRGDYMTMQIG] as substrate at 10 uM incubated for 40 min by Kinase HotSpotSM based scintillation counting assay.
The target in test [8] is Aurora kinase B (Homo sapiens) (UniProt Q96GD4). Description: Inhibition of human Aurora B using [H-LRRASLG] as substrate at 10 uM incubated for 40 min by Kinase HotSpotSM based scintillation counting assay.
Test [9] has as its target Macrophage colony-stimulating factor 1 receptor (Homo sapiens) (UniProt P07333). Description: Inhibition of human FMS using poly[Glu:Tyr] as substrate at 10 uM incubated for 40 min by Kinase HotSpotSM based scintillation counting assay.

SMILES strings stand for the structures.

The term inhibition denotes the change of the read-out against control, counted positive when it falls. Regarding `NS(=O)(=O)c1ccc(-n2cc(-c3cccc(NC(=O)c4ccc(Cl)c(C(F)(F)F)c4)c3)nn2)cc1`, the inhibition in test [1] was 2.3%; in test [2], 8.1%; in test [3], 5.5%; in [4], -9.8%; in test [5], 1.1%; in test [6], 13%. For the same compound, the inhibition in test [7] was -4.7%; in [8], 13.4%; in test [9], 16.2%.
